From article PMC1805503 (Beilstein Journal of Organic Chemistry, 2007)

Sequences of proteins named here, by UniProt entry; tags and fusion partners are left off.
UniProt P41145, whole entry: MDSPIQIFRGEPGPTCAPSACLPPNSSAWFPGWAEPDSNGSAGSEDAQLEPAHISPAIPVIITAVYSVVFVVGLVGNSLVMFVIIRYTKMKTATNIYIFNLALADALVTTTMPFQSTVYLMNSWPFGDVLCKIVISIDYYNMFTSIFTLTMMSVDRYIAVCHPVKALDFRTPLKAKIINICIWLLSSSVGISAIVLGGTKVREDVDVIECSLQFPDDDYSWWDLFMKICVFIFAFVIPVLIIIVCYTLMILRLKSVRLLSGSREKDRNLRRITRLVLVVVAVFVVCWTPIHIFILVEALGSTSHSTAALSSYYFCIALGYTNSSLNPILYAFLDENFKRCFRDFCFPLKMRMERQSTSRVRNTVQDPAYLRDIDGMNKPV

Assays:
human KOR [1] = target: T1, human KOR (Homo sapiens, UniProt P41145); conditions: read-out: Ki at the KOR, previous report; cited from earlier work
human KOR [2] = target: T1, human KOR; assay: Inhibition of [3H]diprenorphine binding to CHO-hKOR membranes; conditions: for affinity at the KOR (in words): current samples; for Ki: read-out: Ki ± SEM

Row | SMILES | Ki (human KOR [1]) | affinity at the KOR (in words) (human KOR [2]) | Ki (human KOR [2])
1 | CC(=O)O[C@H]1C[C@@H](C(=O)O)[C@]2(C)CC[C@H]3C(=O)O[C@H](c4ccoc4)C[C@]3(C)[C@H]2C1=O | > 1000 nM | no affinity | > 10000 nM
2 | CC(=O)O[C@H]1C[C@@H](C(=O)O)[C@]2(C)CC[C@@H]3C(=O)O[C@H](c4ccoc4)C[C@]3(C)[C@H]2C1=O | 49 nM | no affinity | > 10000 nM

Read-outs that look alike come from different tables or passages of the source.
